The numbers were not newly measured in US20100119624A1, “BENZISOXAZOLE MODULATORS OF D2 RECEPTOR AND/OR 5-HT2A RECEPTOR” (AUSPEX PHARMACEUTICALS, INC., priority 2008, published 2010), which cites them from elsewhere.

Protein sequences, listed by entry. Tags and fused reporters are not part of them.
UniProt P14416, whole entry: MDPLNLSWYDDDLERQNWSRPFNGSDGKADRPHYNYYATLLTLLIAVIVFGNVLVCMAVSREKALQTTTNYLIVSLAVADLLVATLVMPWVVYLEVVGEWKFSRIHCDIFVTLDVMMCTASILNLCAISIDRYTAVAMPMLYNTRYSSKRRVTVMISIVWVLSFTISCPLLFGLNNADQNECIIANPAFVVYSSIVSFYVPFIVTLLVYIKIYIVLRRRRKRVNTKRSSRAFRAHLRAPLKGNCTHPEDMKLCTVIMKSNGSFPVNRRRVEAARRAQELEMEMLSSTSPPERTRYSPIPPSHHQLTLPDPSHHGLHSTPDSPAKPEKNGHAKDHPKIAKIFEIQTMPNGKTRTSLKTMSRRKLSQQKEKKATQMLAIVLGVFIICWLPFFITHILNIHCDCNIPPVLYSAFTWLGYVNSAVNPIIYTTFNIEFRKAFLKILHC

Each structure is given as a SMILES string.

This series deals with D2 receptors (Homo sapiens, UniProt P14416). The note with it: as active as risperidone.

In the case of `Cc1nc2n(c(=O)c1CCN1CCC(c3noc4cc(F)ccc34)CC1)CCCC2O` (stereo not shown) [9-Hydroxyrisperidone], the “activity relative to risperidone at D2 receptors” value is “approximately 70%”.
